Laboratory results published in patent publication US20130040903A1, “PHARMACEUTICAL COMPOSITIONS FOR TREATING DEPRESSION AND ANXIETY” (priority 2007, published 2013).

Test system: 5-HT
Assay: Unpredictable long-term stimulus model: 5-HT content in the rat cerebral cortex (HPLC-electrochemical test)
Format: in vivo
Conditions: Experiment 9, 2 mg/kg/d 24 days
Experimental: 9.4.1 Group division and administration of drug: The rats are grouped randomly into 6 groups. 1. False therapy group; 2. model group (control); 3. high dose of Embodiment 4 (60 mg/kg/d); 4. middle dose of Embodiment 4 (30 mg/kg/d); 5. low dose of Embodiment 4 (15 mg/kg/d); and 6. Paroxetine (2 mg/kg/d). The test drugs and the positive drug are prepared with 0.5% of CMC-Na for feeding into the stomach once every day.
Unpredictable long-term stimulus model: The rats in the control group eat and drink normally, and there is no stimulus performed. In other 5 groups, one rat is fed in each cage, and the rat is subject to the 24-day unpredictable stress/stimulus, including 24-hour abstinence for 3 times, 24-hour without drinking for 3 times, 24-hour wet bedding for 3 times (200 ml of water is added in the rat cage), overnight illumination for 3 times, swimming at 4° C. for 5 minutes for 3 times, heating at 45° C. in the oven for 5 minutes for 3 times, clipping the rat tail for 1 minute for 3 times, and 30-minute high-speed horizontal shake for 3 times. One stimulus is performed randomly every day and a total of 24 days. Each stimulus cannot be performed continuously. The pharmaceutical is fed into the rat's stomach once every day and a total of 24 days.
9.5.6 HPLC-electrochemical test: The amounts of norepinephrine and 5-hydrotryptamine in the rat cerebral cortex are measured.

Fc1ccc([C@@H]2CCNC[C@H]2COc2ccc3c(c2)OCO3)cc1 [Paroxetine]
5-HT: 227.0637 ± 46.54 nmol/L brain tissue extracts
